The IC50 is the concentration needed to halve the response being measured.

Protein sequences, listed by entry. Tags and fused reporters are not part of them.
UniProt P33981, whole entry: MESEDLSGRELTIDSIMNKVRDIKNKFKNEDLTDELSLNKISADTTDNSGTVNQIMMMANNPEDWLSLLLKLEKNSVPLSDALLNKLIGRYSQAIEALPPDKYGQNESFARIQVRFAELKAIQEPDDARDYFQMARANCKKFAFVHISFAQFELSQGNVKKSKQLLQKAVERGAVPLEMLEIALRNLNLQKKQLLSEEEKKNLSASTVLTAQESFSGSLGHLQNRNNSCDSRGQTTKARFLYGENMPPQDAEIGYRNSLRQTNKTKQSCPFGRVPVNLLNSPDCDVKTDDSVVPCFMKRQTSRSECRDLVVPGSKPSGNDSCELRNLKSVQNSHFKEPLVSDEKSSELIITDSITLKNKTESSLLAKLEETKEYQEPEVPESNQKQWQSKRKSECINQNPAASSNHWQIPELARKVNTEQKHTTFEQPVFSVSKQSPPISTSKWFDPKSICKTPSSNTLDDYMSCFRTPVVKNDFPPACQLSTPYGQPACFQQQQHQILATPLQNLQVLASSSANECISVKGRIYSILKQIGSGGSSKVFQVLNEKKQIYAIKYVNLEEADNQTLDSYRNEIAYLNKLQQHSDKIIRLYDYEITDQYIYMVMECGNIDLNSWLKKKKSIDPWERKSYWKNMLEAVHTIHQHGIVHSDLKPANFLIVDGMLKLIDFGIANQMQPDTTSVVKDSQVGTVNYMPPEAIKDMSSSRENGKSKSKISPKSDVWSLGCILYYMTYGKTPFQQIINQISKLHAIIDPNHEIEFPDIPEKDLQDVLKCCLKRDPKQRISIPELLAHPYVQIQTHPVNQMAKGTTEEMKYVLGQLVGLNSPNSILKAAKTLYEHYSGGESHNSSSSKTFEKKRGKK

The target in the experiment is TTK (Homo sapiens, UniProt P33981). Put plainly: TTK inhibitory activity (kinase reaction, Fluorescein-PolyGT substrate, antibody/EDTA stop, Envision read). Particulars: read-out: TTK IC50; 0.5 nM TTK, 7 uM ATP, 0.2 uM Fluorescein-PolyGT, 28° C., 30 min.

Consider `CCOc1cc(-c2nncn2C)ccc1Nc1ncc2ccc(C3=CCCCC3)n2n1`, for which the IC50 came out at 2.4 nM.

(Values after patent US20230212174A1, “PYRROLO[2,1-F][1,2,4]TRIAZINE DERIVATIVE AND USE THEREOF” (Tencent Technology (Shenzhen) Company Limited, priority 2021, published 2023).)
